Here are results for one molecule from patent US5407939A, “Fluorinated 17 β-substituted 4-aza-5 α-androstan-3-one derivatives” (Farmitalia Carlo Erba S.R.L., priority 1992, dated 1995).

Assay [1] addresses T1, 5α-reductase (Homo sapiens, UniProt P31213).
T1 construct: particulate fraction from homogenates of hyperplastic human prostates; from tissue; host or cells: hyperplastic human prostate, particulate fraction (140,000×g pellet)
T1 sequence (P31213 1-254): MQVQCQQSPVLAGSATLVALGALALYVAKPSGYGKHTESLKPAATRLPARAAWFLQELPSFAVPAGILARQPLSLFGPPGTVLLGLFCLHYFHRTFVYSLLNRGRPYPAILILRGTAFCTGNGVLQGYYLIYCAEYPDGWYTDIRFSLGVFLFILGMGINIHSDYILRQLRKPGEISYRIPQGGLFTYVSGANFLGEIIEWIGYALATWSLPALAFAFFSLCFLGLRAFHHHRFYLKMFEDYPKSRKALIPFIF
Description: In vitro assay of 5α-reductase inhibition (particulate fraction from homogenates of hyperplastic human prostates, [14C] testosterone). It is filed as biochemical. The note with it: human prostate particulate fraction, pH 5.5, 1 μM [14C] testosterone, 30 min, 37° C. The protocol:
(§1) For example, the inhibitory effect of the compounds of the invention on 5α-reductase was determined in vitro and in vivo according to the procedure reported herebelow.
Inhibition of 5α-reductase was evaluated using the particulate fraction from homogenates of hyperplastic human prostates as the enzyme source. The particulate fraction was prepared centrifuging prostate homogenate at 140,000×g. The resulting pellet, washed several times, was resuspended in buffer and stored at -80° C. in aliquots containing ≈10 mg protein/mi.
The assay for 5α-reductase was done in a final volume of 0.5 ml, in 40 mM TRIS-HCl buffer pH 5.5, containing 1 mM dithiothreitol, 5 mM NADPH, 1 μM [^14 C] testosterone, an aliquot of the enzyme preparation and various of the inhibitors. After 30 min incubation at 37° C. the reaction was terminated by addition of 2 ml cold diethyl ether and the organic phase was separated, evaporated under N2 and resuspended in ethyl acetate. […]
Radioactivity on the plate was scanned and analyzed from quantitative plots printed by a TLC-analyzer (Berthold). The fractional 5α-reduction of testosterone was calculated by relating the ^14 C-radioactivity in the 5α-reduced metabolites (5α-dihydrotestosterone, 3α- and 3β-androstanediols) regions to the total radioactivity in the testosterone and 5α-reduced metabolites regions. […]

Assay [2] deals with 5α-reductase. Description: In vivo inhibition of 5α-reductase (antiandrogenic effect, ventral prostate weight in castrated, testosterone-implanted rats). The note with it: rat, once daily for 7 consecutive days. How it is done:
as §1
The standard test for the antiandrogenic effect in rats was used. Prepuberal 22-day-old male rats were castrated via scrotal incision under light ether anaesthesia. On the seventh day after orchiectomy, androgen replacement was performed via subcutaneous implantation of 1 cm-long Silastic® tube (Dow-Corning, Model No 602-265) filled with a mixture of 25% testosterone and 75% cholesterol. The rats were then treated orally with the tested compounds (7 animals/group), once daily for 7 consecutive days. 24 hours after the last dose the rats were sacrificed and the ventral prostate was removed and weighed. Control animals (testosterone controls) received the vehicle (0.5 ml/kg of 0.5% Methocel/0.4% Tween 80). One group of castrated rats was not implanted with testosterone (castrated controls).
The mean percentage of inhibition of the T-induced hypertrophic response of the prostate was calculated according to the following formula:
% inhibition=100×(WTC -W1)/(WTC -WCC)
where WTC, WCC and W1 are the mean prostate weight of testosterone control, castrated control and inhibitor treated group, respectively.

The structures appear in SMILES notation.

`CC(NC(=O)[C@H]1CC[C@H]2[C@@H]3CC[C@H]4NC(=O)C=C[C@]4(C)[C@H]3CC[C@]12C)(c1ccccc1)C(F)(F)F` (stereo partly drawn) [Compound 41, N-(1,1,1-trifluoro-2-phenylprop-2-yl) 3-oxo-4-aza-5α-androst-1-ene-17β-carboxamide]: the IC50 – broadly, the concentration that inhibits the measured activity by half – in assay [1] worked out at 12 nM. For the same molecule, the “% INHIBITION OF PROSTATE WEIGHT AT 3 mg/kg/day p.o.” value in assay [2] is given as 54%.
